Experimental data taken from patent US7109376B2, “Benzene and naphthylene derivatives and their use as UV screening agents” (DSM IP Assets B.V., priority 2001, dated 2006).

Experiments:
[1] = irradiated in high dilution with a Hg-lamp 150 W (Heraeus)

| Substance | photostability [1] | mixability with conventional cosmetic solvents |
| --- | --- | --- |
| 1,4-bis-[2-(4-(or 5-)tert.-pentyl-7-(1-pentyl-allyl)(and/or -7-oct-3-en-2-yl)-benzoxazol)-yl]-benzene [Example 10] | photostable | easily mixable |
| 1,4-bis-[2-(5-tert.-butyl-7-(1-pentyl-allyl)- and/or -7-(oct-3-en-2-yl)benzoxazol)-yl]-benzene [Example 7] | photostable | easily mixable |
